The target of test [1] is SOCS2/B/C (Homo sapiens, UniProt O14508+Q15369). Nature of the test: biochemical.
Test [2] has as its target T1, Vif/EloB/C/CBFβ (UniProt P69723+Q15369).
T1 construct: Vif in the context of the Vif/EloB/C/CBFβ is full-length Vif (amino acids 1-192); co-expressing EloB1-118 and EloC17-112 from MCS1 and MCS2, respectively, from a pETDuet-1 vector (pEloBC); made in house; host or cells: E. coli BL21(DE3)
Nature of the test: Fluorescence anisotropy of 5-FAM Cul5 peptides with Vif/EloB/C/CBFβ. The class given is binding, HIV-1 Vif; human EloB/C/CBFβ. From the text:
The dissociation constant (KD) for each interaction is provided.

Amino acid sequences for entries named in this document (tags omitted). Residues count along the entry.
UniProt O14508, 158-198: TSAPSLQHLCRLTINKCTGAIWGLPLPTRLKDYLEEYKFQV
UniProt P69723, 2-192, added parts left off: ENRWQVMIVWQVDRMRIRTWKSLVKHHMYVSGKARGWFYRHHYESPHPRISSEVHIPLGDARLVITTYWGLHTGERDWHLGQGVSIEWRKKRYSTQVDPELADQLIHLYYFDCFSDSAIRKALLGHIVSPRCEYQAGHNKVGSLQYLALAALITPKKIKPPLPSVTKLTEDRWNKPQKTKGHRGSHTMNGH

Consider two molecules from patent US20150268247A1, “Assay for Screening of Anti-Viral Compounds That Inhibit Specific Interaction Interfaces Between Cullin5 and an ElonginB/ElonginC/ CBF-beta/HIV-1 Vif Complex” (UNIVERSITY OF ROCHESTER, priority 2012, published 2015).

SMILES strings stand for the structures.

In general, Kd refers to the equilibrium constant for the complex coming apart. High values mean weaker binding, low ones tighter binding. For the molecule `CC[C@H](C)[C@H](NC(=O)[C@H](CCCCN)NC(=O)[C@H](C)NC(=O)[C@@H]1CCCN1C(=O)CNC(=O)[C@H](CCCCN)NC(=O)[C@H](CC(=O)O)NC(=O)[C@H](CC(=O)O)NC(=O)[C@H](Cc1c[nH]c2ccccc12)NC(=O)[C@H](CC(C)C)NC(=O)[C@H](CS)NC(=O)[C@@H](NC(=O)[C@H](C)NC(=O)[C@H](Cc1c[nH]cn1)NC(=O)[C@@H](NC(=O)[C@H](CC(=O)O)NC(=O)[C@H](CO)NC(=O)[C@H](Cc1ccccc1)NC(=O)[C@H](CC(C)C)NC(=O)CCCCCNC(=O)c1ccc2c(c1)C(=O)OC21c2ccc(O)cc2Oc2cc(O)ccc21)C(C)C)C(C)C)C(=O)N[C@@H](Cc1c[nH]cn1)C(=O)N[C@@H](CCC(N)=O)C(=O)N[C@@H](C)C(=O)N[C@@H](CC(C)C)C(=O)O` [Cul5(43-65)], in test [1], the Kd came to 7.3 µM.
`CC(C)C[C@H](NC(=O)[C@H](CC(=O)O)NC(=O)[C@H](Cc1ccccc1)NC(=O)[C@H](Cc1c[nH]c2ccccc12)NC(=O)[C@H](CCC(N)=O)NC(=O)[C@H](CCC(N)=O)NC(=O)[C@H](CCCCN)NC(=O)CCCCCNC(=O)c1ccc2c(c1)C(=O)OC21c2ccc(O)cc2Oc2cc(O)ccc21)C(=O)N[C@@H](Cc1ccccc1)C(=O)N[C@@H](CO)C(=O)N[C@@H](CC(=O)O)C(=O)N[C@H](C(=O)N[C@@H](Cc1c[nH]cn1)C(=O)O)C(C)C` [Cul5(37-48)] had a dissociation constant Kd in test [2] of 15.6 µM.
